One test deals with TLR4. The test can be described thus: Immunoblot of injured sciatic nerve two days after PNL, TLR4. The class given is in vivo, mouse. Particulars: vehicle greater than 2-fold increase. On the procedure: (§1) Neuropathic pain model: Mice (n=30) were randomly assigned to two different groups: SP163M (2 μg/g; s.c. 100 μl) and vehicle (H20 s.c. 100 μl). Mice were treated 1 h prior to partial nerve ligation (PNL) and then daily at least 1 h prior to behavior testing for 2 weeks. PNL studies were performed as previously disclosed^59 and adapted for mice.^57 Male mice were anesthetized with 3% isoflurane (Vetone, USA) in 1.5 L/min oxygen (Praxair, USA) and maintained with 2.5% isoflurane. An incision was made along the long axis of the femur. […] Filaments were presented in a consecutive fashion either ascending or descending using the up-down method as previously disclosed^60 and modified for mice.^57,61 The filament that caused paw withdrawal 50% of the time (the 50% PWT) was determined. […]
(§2) Immunoblots of sciatic nerve: Sciatic nerves were harvested 2 days after PNL to identify early molecular and cellular changes. […] Nerves were lysed in RIPA buffer and equal amounts of protein (20 μg) from nerves lysates, as determined by BCA Protein Assay (Bio-Rad, Hercules, CA, USA), were subjected to 10% SDS-PAGE and electro-transferred to nitrocellulose membranes. […] Primary antibodies were detected with HRP-conjugated species-specific secondary antibodies (Cell Signaling Technology, Danvers, MA, USA; cat #7076S or 4S; 1:5000). […]
For orientation: In western blotting, separated proteins are transferred to a membrane and probed.

In another test the test system is CD11b. Put plainly: Immunohistochemistry of L4 DRGs two days after PNL, CD11b. It is filed as in vivo, mouse. Particulars: L4 DRG two days after PNL, vs vehicle. On the procedure: as §1, §2
A further test concerns GFAP. Put plainly: Immunohistochemistry of L4 DRGs two days after PNL, GFAP (satellite cell activation). It is filed as in vivo, mouse. To be noted: L4 DRG two days after PNL, vs vehicle. On the procedure:
as §1, §2

Another test deals with phospho-IkBa (Ser32). The test can be described thus: TNFα induced phosphorylation of IκBα in HaCat cells (immunoblot). It is filed as cell-based, human. On the procedure: Cells were pretreated with either vehicle or SP163M (100 μg/ml). TSLP was measured in the supernatant via ELISA (p=0.0045 vs. vehicle treated Poly IC induced cells). FIG. 10B: HaCat cells treated as in FIG. 10A were analyzed via the CellTiter-Glo® Luminescent Cell Viability Assay by Promega. The percent change from untreated (no Poly IC) cells were compared between SP163M vs. vehicle treated poly IC induced control (p=0.0068). FIG. 10C: HaCat cells were insulted with TNFα and immunoblotted for phospho-IkBa (Ser32). GAPDH served as a loading control and signal normalization.
TNFα treatment led to phosphorylation of IκBα (inhibitor of nuclear factor kappa B), which then activated NFκB. Therefore, in a model of skin inflammation, SP163M shut down a key inflammatory pathway (FIG. 10C).

With `CCCC[C@H](NC(=O)[C@H](CC(C)C)NC(=O)[C@H](Cc1ccccc1)NC(=O)[C@@H](NC(=O)[C@H](Cc1ccccc1)NC(=O)[C@@H]1CCCN1C(=O)[C@H](CCCCN)NC(=O)[C@H](CC(N)=O)NC(=O)[C@H](Cc1ccccc1)NC(=O)[C@H](CCCCN)NC(=O)[C@@H](NC(C)=O)C(C)C)C(C)C)C(=O)N[C@H](C(=O)N[C@@H](CCC(=O)O)C(=O)N[C@@H](CCC(N)=O)C(=O)N[C@@H](CC(N)=O)C(=O)N[C@H](C(=O)N[C@@H](CCCCN)C(N)=O)[C@@H](C)O)[C@@H](C)CC` [SP163M, Ac-VKFNKPFVFLNIeIEQNTK-NH2], the “TLR4 in injured sciatic nerve (densitometric analysis)” value in the test on TLR4 is “completely blocked the upregulation of TLR4”. Also, the “CD11b levels in DRGs (quantification of immunohistochemistry)” value in the test on CD11b is on record as “approximately five-fold less CD11 b levels than vehicle-treated DRGs”. The “decrease in GFAP levels in DRGs (quantification of immunohistochemistry)” value in the test on GFAP came out at 6 fold. Also, the “phosphorylation of IκBα by TNF-α” value with phospho-IkBa (Ser32) is “inhibited the phosphorylation of IκBα by TNF-α”.

The record behind these values is patent publication US20250161419A1, “SERPIN PEPTIDES AND METHODS OF USING THE SAME” (SERPIN PHARMA, LLC, priority 2022, published 2025).
